# US10611777B2, “Imidazopyridazine compounds and their use” (HUTCHISON MEDIPHARMA LIMITED, priority 2014, dated 2020)
# Chains of the proteins cited; added tags and fusions are not shown. Lines headed by an entry give the natural chain unless they say otherwise; changes in a name come on top.
# UniProt P48736, whole entry, species assumed: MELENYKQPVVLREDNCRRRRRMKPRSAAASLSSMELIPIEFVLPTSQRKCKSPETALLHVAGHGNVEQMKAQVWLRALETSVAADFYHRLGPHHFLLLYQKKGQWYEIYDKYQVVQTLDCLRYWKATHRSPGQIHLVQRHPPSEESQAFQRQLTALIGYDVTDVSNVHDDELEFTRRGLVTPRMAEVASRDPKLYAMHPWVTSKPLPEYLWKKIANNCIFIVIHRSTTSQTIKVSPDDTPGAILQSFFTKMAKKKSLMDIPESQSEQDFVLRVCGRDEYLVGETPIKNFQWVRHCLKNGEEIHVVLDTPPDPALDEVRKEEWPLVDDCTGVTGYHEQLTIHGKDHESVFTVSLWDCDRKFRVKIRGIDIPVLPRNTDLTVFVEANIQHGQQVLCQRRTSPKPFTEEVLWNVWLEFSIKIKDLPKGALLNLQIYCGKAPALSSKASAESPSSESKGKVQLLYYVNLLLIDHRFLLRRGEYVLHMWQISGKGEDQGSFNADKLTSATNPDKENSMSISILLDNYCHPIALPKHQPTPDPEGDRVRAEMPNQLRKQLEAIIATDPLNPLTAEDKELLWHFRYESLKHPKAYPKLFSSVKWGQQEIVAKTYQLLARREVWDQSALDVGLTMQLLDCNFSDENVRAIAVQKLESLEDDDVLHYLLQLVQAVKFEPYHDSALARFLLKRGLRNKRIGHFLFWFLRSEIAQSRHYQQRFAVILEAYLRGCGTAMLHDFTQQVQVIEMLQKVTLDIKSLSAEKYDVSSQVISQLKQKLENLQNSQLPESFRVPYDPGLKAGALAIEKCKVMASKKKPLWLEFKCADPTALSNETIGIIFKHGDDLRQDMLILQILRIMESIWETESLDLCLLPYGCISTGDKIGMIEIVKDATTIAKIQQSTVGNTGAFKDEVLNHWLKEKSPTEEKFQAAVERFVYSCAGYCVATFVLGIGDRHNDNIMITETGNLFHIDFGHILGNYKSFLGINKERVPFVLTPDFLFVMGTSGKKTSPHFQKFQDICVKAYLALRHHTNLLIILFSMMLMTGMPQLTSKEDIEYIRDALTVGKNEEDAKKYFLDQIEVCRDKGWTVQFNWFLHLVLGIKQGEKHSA
# UniProt O00329, whole entry, species assumed: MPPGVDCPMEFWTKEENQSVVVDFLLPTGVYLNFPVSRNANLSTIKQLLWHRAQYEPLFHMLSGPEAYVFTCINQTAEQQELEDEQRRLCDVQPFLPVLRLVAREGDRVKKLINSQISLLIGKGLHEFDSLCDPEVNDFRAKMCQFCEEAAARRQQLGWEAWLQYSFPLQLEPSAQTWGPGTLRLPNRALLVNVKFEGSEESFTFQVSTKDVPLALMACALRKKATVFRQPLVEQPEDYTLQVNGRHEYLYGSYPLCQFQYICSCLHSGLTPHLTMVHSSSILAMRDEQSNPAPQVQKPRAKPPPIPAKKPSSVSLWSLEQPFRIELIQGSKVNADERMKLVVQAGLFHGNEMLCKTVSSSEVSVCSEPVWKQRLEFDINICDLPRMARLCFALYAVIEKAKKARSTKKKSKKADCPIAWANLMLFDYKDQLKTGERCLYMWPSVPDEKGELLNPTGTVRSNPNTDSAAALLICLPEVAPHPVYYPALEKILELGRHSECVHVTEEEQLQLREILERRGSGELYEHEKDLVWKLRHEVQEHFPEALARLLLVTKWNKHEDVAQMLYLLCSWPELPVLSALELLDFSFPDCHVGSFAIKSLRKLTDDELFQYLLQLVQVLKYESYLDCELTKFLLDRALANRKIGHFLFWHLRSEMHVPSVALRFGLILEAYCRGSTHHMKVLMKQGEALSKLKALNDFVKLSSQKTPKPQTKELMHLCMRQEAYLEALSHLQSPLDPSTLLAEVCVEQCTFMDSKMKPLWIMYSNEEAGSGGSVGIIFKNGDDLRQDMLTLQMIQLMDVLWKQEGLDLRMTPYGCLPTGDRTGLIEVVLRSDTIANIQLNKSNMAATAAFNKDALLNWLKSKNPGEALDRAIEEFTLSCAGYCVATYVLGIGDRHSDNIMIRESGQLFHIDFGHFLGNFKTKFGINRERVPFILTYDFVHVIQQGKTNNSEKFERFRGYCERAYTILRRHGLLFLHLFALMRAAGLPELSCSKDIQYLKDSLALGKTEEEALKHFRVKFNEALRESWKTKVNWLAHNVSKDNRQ
# Tests used:
# [1] = system: PI3Kδ signaling in basophils from human whole blood; experiment: Inhibition of PI3Kδ signaling in basophils from human whole blood; type: cell-based; details: anti-IgE stimulated, CD63
# PI3K-γ (p110γ) = PI3K-γ (p110γ) (Homo sapiens (Human), UniProt P48736); experiment: Fluorescent determination of PI3K enzyme activity (Transcreener KINASE Assay), PI3K-γ; type: biochemical;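 further: p110γ enzyme reaction for 80 min at room temperature, ADP formed measured by far-red competitive fluorescence polarization immunoassay, inhibition relative to wells with 2% DMSO only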
# PI3K-δ (p110δ/p85α) = PI3K-δ (p110δ/p85α) (Homo sapiens (Human), UniProt O00329); experiment: Fluorescent determination of PI3K enzyme activity (Transcreener KINASE Assay), PI3K-δ; type: biochemical
structure (smiles),measurement,setting,value
"C[C@H](Nc1ncnc(N)c1C#N)c1cc2ncc(Cl)n2nc1-c1ccccc1 [Compound 4, (S)-4-amino-6-((1-(3-chloro-6-phenylimidazo[1,2-b]pyridazin-7-yl)ethyl)amino)pyrimidine-5-carbonitrile]",IC50,[1],1 nM
"C[C@H](Nc1ncnc(N)c1C#N)c1cc2ncc(F)n2nc1-c1ccccc1 [Compound 78, (S)-4-amino-6-((1-(3-fluoro-6-phenylimidazo[1,2-b]pyridazin-7-yl)ethyl)amino)pyrimidine-5-carbonitrile]",IC50,PI3K-γ (p110γ),712 nM
[2H]c1c([2H])c([2H])c(-c2nn3c(Cl)cnc3cc2[C@H](C)Nc2ncnc(N)c2C#N)c([2H])c1[2H] [Compound 80],IC50,PI3K-δ (p110δ/p85α),0.5 nM
